Ab-14 heavy chain CDR variants: yeast mating affinities

Values reported by Engelhart et al. 2022, doi:10.1038/s41597-022-01779-4 (FLAb copy).

Target peptide (SARS-CoV-2 spike, HR2 region): PDVDLGDISGINAS

Parent: Ab-14, a human scFv built as VH, three GGGGS repeats, VL. Only the CDRs of the heavy chain vary.
VH: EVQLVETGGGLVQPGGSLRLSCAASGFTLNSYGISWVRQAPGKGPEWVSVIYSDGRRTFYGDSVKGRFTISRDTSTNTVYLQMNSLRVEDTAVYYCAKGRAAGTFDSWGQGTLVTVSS
VL: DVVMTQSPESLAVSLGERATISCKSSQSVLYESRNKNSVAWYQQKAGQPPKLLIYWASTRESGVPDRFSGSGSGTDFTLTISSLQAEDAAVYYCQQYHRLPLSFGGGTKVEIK

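Library AAYL49 holds single substitutions and randomly drawn double and triple substitutions in the CDRs. Affinity was read by AlphaSeq, a pooled yeast mating assay with surface-displayed partners. Mating (16 h, 30 °C) was followed by selection of diploids and sequencing of their barcodes. Each replicate has its own calibration line, from reference interactions of the BCL2 family. There are three technical replicates.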

Substitutions are numbered in sequence along the VH above, starting at 1 (not Kabat).
Numbers give log10(Kd / nM), so 0 is 1 nM and 3 is 1 µM. Smaller is tighter.
Replicates are averaged; those with no signal do not enter the mean.
"not detected" means that the variant was in the library but no mating with the target was seen in any replicate; the authors take this as a sign of poor binding, and no number exists.
Empty control strains, which show no peptide, gave a signal in 15% of pairings with library AAYL49; the median was 4.06 and 95% of these signals were weaker than 2.83. No background was subtracted.
Parent in this assay: reference entry 0.65, copy in this library 4.11 (one replicate of three).

| # | changes | mean log10 Kd (nM) | detected |
|---|---|---|---|
| 1 | D62V/T104D | not detected | 0 of 3 |
| 2 | G55A/F59V/D62A | 4.29 | 1 of 3 |
| 3 | R56M/T104K/D106P | 1.20 | 3 of 3 |
| 4 | S35G/V50P/G61V | not detected | 0 of 3 |
| 5 | G26C/N30M/S31A | not detected | 0 of 3 |
| 6 | R56I/Y60R/V64T | 2.43 | 1 of 3 |
| 7 | G26M/I34N/Y60G | 4.21 | 1 of 3 |
| 8 | R57S/F59A/D106Q | 3.30 | 1 of 3 |
| 9 | F27T/S53C/A101F | 2.39 | 1 of 3 |
| 10 | T28H/L29K/R56H | not detected | 0 of 3 |
| 11 | F27S/K65P | 4.59 | 1 of 3 |
| 12 | G26M/G61Q/V64H | 4.65 | 1 of 3 |
| 13 | Y52R/T104I | not detected | 0 of 3 |
| 14 | S31C/F59S | 2.50 | 3 of 3 |
| 15 | T28Y/G55H/A101W | not detected | 0 of 3 |
| 16 | G33Q/G61Y | not detected | 0 of 3 |
| 17 | S53F/F59M/D106K | 3.93 | 1 of 3 |
| 18 | F27W/Y52E/V64P | 4.55 | 2 of 3 |
| 19 | G99R/S107E | 1.55 | 3 of 3 |
| 20 | R57T/K65C/S107E | 2.56 | 1 of 3 |
| 21 | F27K/L29P/A101W | 3.84 | 2 of 3 |
| 22 | G33W/R100N | not detected | 0 of 3 |
| 23 | S35Q/A102H/G103N | not detected | 0 of 3 |
| 24 | G26K/R56V/G61C | 1.80 | 3 of 3 |
| 25 | T28A/S35M/R56N | not detected | 0 of 3 |
| 26 | N30K/S53F/D106V | not detected | 0 of 3 |
| 27 | N30R/T58F/Y60E | not detected | 0 of 3 |
| 28 | S35P/R56E/D106Q | 2.86 | 1 of 3 |
| 29 | Y52N/D62E/S63E | 4.99 | 2 of 3 |
| 30 | I34R/S63V/A101E | 4.14 | 1 of 3 |
| 31 | Y32C/R57S/D62E | not detected | 0 of 3 |
| 32 | F59D/S63K/A101P | 5.23 | 2 of 3 |
| 33 | N30S/A101W/G103V | not detected | 0 of 3 |
| 34 | G26T/A102W/G103F | 2.76 | 3 of 3 |
| 35 | I34F/T58S/A102D | 2.35 | 3 of 3 |

Second part, the sequence after the result:

| # | mean log10 Kd (nM) | detected | changes |
|---|---|---|---|
| 36 | not detected | 0 of 3 | G61M/K65S/F105P |
| 37 | not detected | 0 of 3 | Y32A/D54E/G99H |
| 38 | not detected | 0 of 3 | R100S/F105V |
| 39 | not detected | 0 of 3 | I34S/V50M |
| 40 | 5.04 | 1 of 3 | N30Q/R56W/D106Y |
| 41 | not detected | 0 of 3 | L29D/Y60N/S63H |
| 42 | 2.87 | 1 of 3 | N30L/F59Y/K65C |
| 43 | not detected | 0 of 3 | I34F/G61W/R100C |
| 44 | 5.08 | 1 of 3 | Y52N/Y60G/V64H |
| 45 | 4.04 | 1 of 3 | R57I/G61R/V64K |
| 46 | not detected | 0 of 3 | S53D/G61Q/T104R |
| 47 | 1.53 | 3 of 3 | S31N/S53R/S63A |
| 48 | 4.16 | 1 of 3 | D62C/S63L/A101E |
| 49 | 3.64 | 1 of 3 | S63P/V64T/T104E |
| 50 | not detected | 0 of 3 | Y60A/V64L/R100F |
| 51 | 2.16 | 3 of 3 | T58K/G61C |
| 52 | 4.45 | 1 of 3 | D62V/S63I/V64H |
| 53 | not detected | 0 of 3 | T58Y/G99L/R100K |
| 54 | 3.34 | 1 of 3 | V50S/G99L/G103N |
| 55 | 3.17 | 1 of 3 | Y52A/R100K |
| 56 | not detected | 0 of 3 | S53E/R57E/D106V |
| 57 | not detected | 0 of 3 | S35L/I51F/Y52A |
| 58 | not detected | 0 of 3 | S31I/G61F/T104K |
| 59 | 5.85 | 1 of 3 | S63K/A102W |
| 60 | 0.66 | 3 of 3 | S31T/I34V |
| 61 | 3.92 | 2 of 3 | F27S/S35R/T104F |
| 62 | not detected | 0 of 3 | S53G/R100I/A102P |
| 63 | not detected | 0 of 3 | Y32N/V64P/K65G |
| 64 | not detected | 0 of 3 | R57C/T58F/S63H |
| 65 | not detected | 0 of 3 | Y32D/F105S/D106M |
| 66 | not detected | 0 of 3 | F27V/L29N/G33C |
| 67 | not detected | 0 of 3 | Y52I/G103K/S107W |
| 68 | not detected | 0 of 3 | N30C/V64P/G103C |
| 69 | 4.89 | 3 of 3 | F27E/I34T/G55Y |
| 70 | 3.62 | 2 of 3 | F27M/V50A/D62L |
| 71 | 3.72 | 3 of 3 | F59H/D62H |

Top 10 of the variants detected in all replicates, tightest first:

changes	mean log10 Kd (nM)	detected
S31T/I34V	0.66	3 of 3
R56M/T104K/D106P	1.20	3 of 3
S31N/S53R/S63A	1.53	3 of 3
G99R/S107E	1.55	3 of 3
G26K/R56V/G61C	1.80	3 of 3
T58K/G61C	2.16	3 of 3
I34F/T58S/A102D	2.35	3 of 3
S31C/F59S	2.50	3 of 3
G26T/A102W/G103F	2.76	3 of 3
F59H/D62H	3.72	3 of 3